In one assay the target is recombinant human PI3Kδ (Homo sapiens (Human), UniProt O00329). The assay can be described thus: Inhibitory activity on PI3K kinase (ADP-Glo Kinase Assay). (In general: In ADP-Glo the light output rises with the ADP produced.)
Another assay has as its target recombinant human PI3Kα (Homo sapiens (Human), UniProt P42336). Described as above.

The chains behind the UniProt entries cited, without tags or fusion partners. Where a name states a change or a piece, a line headed by the entry shows the natural chain unless it says otherwise.
UniProt O00329: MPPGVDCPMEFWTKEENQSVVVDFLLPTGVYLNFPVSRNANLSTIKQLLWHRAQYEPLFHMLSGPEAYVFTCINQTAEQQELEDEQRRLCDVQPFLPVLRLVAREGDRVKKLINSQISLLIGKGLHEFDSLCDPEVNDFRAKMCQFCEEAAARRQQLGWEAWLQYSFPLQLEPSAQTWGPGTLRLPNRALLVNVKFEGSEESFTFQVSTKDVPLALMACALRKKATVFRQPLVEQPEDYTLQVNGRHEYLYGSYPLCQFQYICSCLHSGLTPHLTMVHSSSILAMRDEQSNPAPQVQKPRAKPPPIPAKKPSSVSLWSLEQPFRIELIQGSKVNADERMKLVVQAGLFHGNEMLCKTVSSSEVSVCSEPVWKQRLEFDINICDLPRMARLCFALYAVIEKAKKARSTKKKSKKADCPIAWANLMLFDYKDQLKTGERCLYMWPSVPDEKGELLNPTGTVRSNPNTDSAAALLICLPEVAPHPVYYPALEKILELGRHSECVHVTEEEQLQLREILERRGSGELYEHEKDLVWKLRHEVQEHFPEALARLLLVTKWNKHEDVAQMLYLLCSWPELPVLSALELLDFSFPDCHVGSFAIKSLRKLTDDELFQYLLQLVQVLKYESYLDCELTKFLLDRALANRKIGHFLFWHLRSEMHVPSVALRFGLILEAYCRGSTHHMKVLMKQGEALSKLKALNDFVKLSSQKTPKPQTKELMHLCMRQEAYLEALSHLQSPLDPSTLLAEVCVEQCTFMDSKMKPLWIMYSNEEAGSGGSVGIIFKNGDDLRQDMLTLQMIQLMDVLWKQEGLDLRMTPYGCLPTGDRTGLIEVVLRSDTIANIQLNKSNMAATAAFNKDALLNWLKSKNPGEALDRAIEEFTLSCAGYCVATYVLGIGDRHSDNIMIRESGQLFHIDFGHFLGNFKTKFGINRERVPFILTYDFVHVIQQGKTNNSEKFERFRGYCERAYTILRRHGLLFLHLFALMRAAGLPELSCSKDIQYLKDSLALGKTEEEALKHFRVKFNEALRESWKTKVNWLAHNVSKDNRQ
UniProt P42336, whole entry: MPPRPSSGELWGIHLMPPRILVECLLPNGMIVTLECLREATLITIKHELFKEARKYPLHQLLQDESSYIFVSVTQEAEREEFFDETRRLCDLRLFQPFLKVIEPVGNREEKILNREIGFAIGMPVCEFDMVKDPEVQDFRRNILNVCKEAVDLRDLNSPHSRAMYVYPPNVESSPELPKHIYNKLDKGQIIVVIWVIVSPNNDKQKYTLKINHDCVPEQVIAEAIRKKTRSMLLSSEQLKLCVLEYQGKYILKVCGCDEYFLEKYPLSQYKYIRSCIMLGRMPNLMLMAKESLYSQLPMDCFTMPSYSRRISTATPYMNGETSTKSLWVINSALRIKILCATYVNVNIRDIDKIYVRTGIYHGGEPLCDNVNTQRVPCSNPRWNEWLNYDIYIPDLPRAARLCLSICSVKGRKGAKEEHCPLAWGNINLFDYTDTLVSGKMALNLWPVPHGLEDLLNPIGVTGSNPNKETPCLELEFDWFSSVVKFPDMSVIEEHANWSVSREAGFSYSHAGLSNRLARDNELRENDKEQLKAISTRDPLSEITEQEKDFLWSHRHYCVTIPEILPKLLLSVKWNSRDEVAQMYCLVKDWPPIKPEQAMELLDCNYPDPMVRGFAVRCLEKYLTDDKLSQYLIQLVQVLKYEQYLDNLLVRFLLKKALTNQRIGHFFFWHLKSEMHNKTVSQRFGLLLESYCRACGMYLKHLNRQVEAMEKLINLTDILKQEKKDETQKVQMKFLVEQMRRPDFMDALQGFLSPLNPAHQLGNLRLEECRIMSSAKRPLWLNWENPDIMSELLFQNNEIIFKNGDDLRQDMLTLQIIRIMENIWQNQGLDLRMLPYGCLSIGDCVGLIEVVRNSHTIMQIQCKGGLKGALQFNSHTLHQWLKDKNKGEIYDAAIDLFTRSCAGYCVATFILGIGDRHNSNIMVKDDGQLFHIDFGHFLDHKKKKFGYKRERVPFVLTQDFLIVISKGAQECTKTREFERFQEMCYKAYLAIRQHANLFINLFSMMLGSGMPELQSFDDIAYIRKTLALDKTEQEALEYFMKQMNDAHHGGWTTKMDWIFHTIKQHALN

For orientation: IC50 means the point on the concentration scale where inhibition reaches its midpoint. As for `C[C@H](NC(=O)c1c(N)nn2cccnc12)c1cc2cccc(C#Cc3cnn(C)c3)c2c(=O)n1-c1ccccc1` [IPI-549, reference compound], the IC50 at recombinant human PI3Kδ stood at 170 nM; on recombinant human PI3Kα, 99.1 nM.
